These results are taken from US20100143992A1, “Process for Fermentive Preparation of Alcohols and Recovery of Product” (E. I du Pont de Nemours and Company, priority 2008, published 2010).

Data set [1] is described as follows: Extraction of ethanol from an aqueous solution by ionic liquid. The format is physicochemical. As to conditions: 5 vol % ionic liquid.
Data set [2] is described as follows: Extraction of isobutanol from an aqueous solution by ionic liquid. The format is physicochemical. The note with it: 5 vol % ionic liquid.
[3] abbreviates: percentage of alcohol remaining in control.

Regarding “1-Ethyl-3-methylimidazolium levulinate [[EMIM] [Lev]]”, in data set [1] (3 mL aqueous solution, about 31 g/L ethanol, overnight equilibration, control 30.2), the “g/L ethanol left in solution” value was found to be 28.9 g/L. Also, the “mM Ethanol (in solution after extraction)” value in data set [1] (3 mL aqueous solution, about 31 g/L ethanol, overnight equilibration, control 655) is on record as 628 mM. Also, the “% EthOH Extracted” value in data set [1] (setting [3]) stood at 4.09%. For the same substance, the “g/L isobutanol left in solution” value in data set [2] (3 mL aqueous solution, about 31 g/L isobutanol, overnight equilibration, control 32.3) was 30.8 g/L. Moreover, the “mM isobutanol (in solution after extraction)” value in data set [2] (3 mL aqueous solution, about 31 g/L isobutanol, overnight equilibration, control 436) is given as 415 mM. Moreover, in data set [2] (setting [3]), the “% isobutanol Extracted” value turned out to be 5.03%.
